Results as given in ChEMBL document CHEMBL5543150, “Design, Synthesis, and Pharmacological Evaluation of Spiro[carbazole-3,3'-pyrrolidine] Derivatives as cGAS Inhibitors for Treatment of Acute Lung Injury” (J Med Chem, 2024).
Blank lines part the entries; values can stand above or below the compound they belong to.

Sequences of proteins named here, by UniProt entry; tags and fusion partners are left off.
UniProt Q8N884, whole entry: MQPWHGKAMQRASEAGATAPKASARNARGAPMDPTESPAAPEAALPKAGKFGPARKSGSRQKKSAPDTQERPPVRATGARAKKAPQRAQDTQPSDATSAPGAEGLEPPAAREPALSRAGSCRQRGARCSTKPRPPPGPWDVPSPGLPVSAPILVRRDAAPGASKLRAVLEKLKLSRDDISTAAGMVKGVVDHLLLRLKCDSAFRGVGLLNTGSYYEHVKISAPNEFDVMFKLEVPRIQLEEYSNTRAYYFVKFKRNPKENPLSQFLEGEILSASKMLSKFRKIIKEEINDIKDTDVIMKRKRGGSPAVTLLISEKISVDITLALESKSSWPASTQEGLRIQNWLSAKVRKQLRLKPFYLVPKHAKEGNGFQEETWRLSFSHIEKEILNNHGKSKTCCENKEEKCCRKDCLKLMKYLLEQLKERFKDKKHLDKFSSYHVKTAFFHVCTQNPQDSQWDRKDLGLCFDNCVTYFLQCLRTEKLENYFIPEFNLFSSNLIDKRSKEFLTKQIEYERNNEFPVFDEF

What was measured:
Cyclic GMP-AMP synthase [1] = target: T1, Cyclic GMP-AMP synthase (Homo sapiens, UniProt Q8N884)
Cyclic GMP-AMP synthase [2] = target: T1, Cyclic GMP-AMP synthase; remark: listed apart in the source
Cyclic GMP-AMP synthase [3] = target: T1, Cyclic GMP-AMP synthase; remark: listed apart in the source
in vivo [4] = conditions: rat, po, 3 mg/kg
in vivo [5] = conditions: rat, iv, 1 mg/kg
[6] = Half life in rat at 3 mg/kg, po; conditions: in vivo
in vivo [7] = conditions: rat, po, 3 mg/kg; remark: listed apart in the source
[8] = MRT last in rat at 3 mg/kg, po; conditions: in vivo
[9] = Cytotoxicity against mouse RAW-Lucia ISG cells incubated for 24 hrs by CCK-8 method
in vivo [10] = conditions: rat, iv, 1 mg/kg; remark: listed apart in the source
[11] = MRT last in rat at 1 mg/kg, iv; conditions: in vivo
in vivo [12] = conditions: rat, po, 3 mg/kg; remark: listed apart in the source
[13] = Half life in rat at 1 mg/kg, iv; conditions: in vivo
[14] = Volume of distribution at steady state in rat at 1 mg/kg, iv; conditions: in vivo
in vivo [15] = conditions: rat, po, 3 mg/kg; remark: listed apart in the source
THP1-Dual = assay: Cytotoxicity against human THP1-Dual cells incubated for 24 hrs by CCK-8 method

Tm (Cyclic GMP-AMP synthase [1]): 47.8 °C | Tm (Cyclic GMP-AMP synthase [2]): 46.5 °C | Tm (Cyclic GMP-AMP synthase [3]): 45.4 °C
SMILES: Cn1ccc(-c2cc(Cl)c(Cl)c3[nH]c4c(c23)CN(C(=O)CO)CC4)n1

Tmax (in vivo [4]): 1.17 h | AUC(0-t) (in vivo [5]): 3020 ng·h/mL | half-life [6]: 2.46 h | Cmax (in vivo [7]): 626 ng/mL | MRT last [8]: 3.59 h | clearance (in vivo [10]): 5.8 mL/min/kg | MRT last [11]: 4.46 h | AUC(0-t) (in vivo [12]): 3140 ng·h/mL | half-life [13]: 3.41 h | Vd [14]: 1.7 L/kg | bioavailability (in vivo [15]): 35.1%
SMILES: O=C(CO)N1CCC2(CCc3[nH]c4c(Cl)c(Cl)cc(-c5ccn(C(F)F)n5)c4c3C2)C1 (racemic)
CC50 [9]: 40 µM

SMILES: O=C(CO)N1CC[C@@]2(CCc3[nH]c4c(Cl)c(Cl)cc(-c5ccn(C(F)F)n5)c4c3C2)C1
CC50 [9]: 44.7 µM | CC50 (THP1-Dual): 28.2 µM

SMILES: O=C(CO)N1CC[C@]2(CCc3[nH]c4c(Cl)c(Cl)cc(-c5ccn(C(F)F)n5)c4c3C2)C1
CC50 [9]: 38 µM | CC50 (THP1-Dual): 14.2 µM
